We go through two compounds from patent US8603980B2, “Glutamate receptor antagonists and methods of use” (The Johns Hopkins University, priority 2007, dated 2013).

Assay [1] relates to AMPA receptor subunits GluR1-4 and kainate receptor subunit GluR5. The conditions noted are these: cited from earlier work.
The subject of a further assay is platelets. The experiment in a line: Intracellular sodium in platelets (SBFI dye, FACS). Type of assay: cell-based, human. Conditions: AMPA 1 mM; TRAP. How it is done: (§1) Human platelets were isolated from healthy volunteers who had not taken aspirin or NSAID within 10 d, under a protocol approved by The Johns Hopkins University School of Medicine Institutional Review Board (JCCI). Blood was collected into citrate anticoagulant, platelets were isolated as platelet rich plasma (PRP) by centrifugation at 180 g for 15 min, and then diluted in Tyrode's buffer 1:20 for activation flow cytometry studies. To determine surface GluR1, a Fc Blocking antibody was added to reduce non-specific background antibody binding. Mouse platelets were isolated by collection into heparinized Tyrode's buffer and isolated by centrifugation. Washed platelets were resuspended in Tyrode's. Intracellular ion concentrations were performed after incubating platelets diluted 1:20 in Tyrode's buffer with SBFI for 45 minutes prior to experiments.

The test system of a further assay is mouse platelets. Kind of assay: Activation of platelets from WT and GluR1-/- mice (surface P-selectin). The conditions noted are these: AMPA 1 mM, thrombin 0.25 U/mL. Type of assay: cell-based. How it is done: The functional relevance of platelet AMPAR was explored by isolating platelets from wild-type (WT) and GluR1 subunit knockout mice (GluR1−/−). Platelets from each type of mouse were incubated with vehicle or AMPA (1 mM), and then activated or not with thrombin (0.25 U/mL). Unstimulated platelets from WT and GluR1−/− mice have similar levels of activation, as measured by P-selectin localized to the platelet surface membrane (FIG. 4 D). However, WT platelets stimulated with thrombin have a greater increase in P-selectin externalization than GluR1−/− platelets.
as §1, with “Intracellular ion concentrations were performed after incubating platelets diluted 1:20 in Tyrode's buffer with SBFI for 45 minutes prior to experiments.” left out

As to `N[C@@H](Cn1nc(I)c(=O)[nH]c1=O)C(=O)O` [5-iodo-6-azawillardiine], the “selectivity for GluR1 and 2 over GluR4 (in words)” value in assay [1] is “reversed”.

For `Cc1onc(O)c1C[C@H](N)C(=O)O` [AMPA, alpha(α)-amino-3-hydroxy-5-methyl-4-isoxazolepropionic acid], the “increase of intracellular Na+ concentration upon activation compared to control” value in the assay on platelets is on record as “approximately two times”. The “thrombin induced activation of GluR1-/- platelets (P-selectin)” value in the assay on mouse platelets (GluR1-/- mice) was “but not GluR1−/− platelets”. Besides, the “thrombin induced activation of WT platelets (P-selectin)” value in the assay with mouse platelets (WT mice) is “increases activation of WT platelets”.
